Earlier results, collected in PubChem BioAssay AID977610.

Legend:
Assay in all cases: PubChem AID 977610
penicillopepsin = settings: PDB protein-ligand complexes, literature Ki, protein: penicillopepsin
NEURAMINIDASE A = settings: PDB protein-ligand complexes, literature Ki; protein: NEURAMINIDASE A; PDB entry 2YA8
[1] = target: rice BGlu1 Beta-glucosidase E176Q mutant; settings: PDB protein-ligand complexes, literature Ki, protein: rice BGlu1 Beta-glucosidase E176Q mutant
thrombin alpha = settings: PDB protein-ligand complexes, literature Ki, protein: thrombin alpha
chymotrypsin gamma = settings: PDB protein-ligand complexes, literature Ki, protein: chymotrypsin gamma
trypsin beta = settings: PDB protein-ligand complexes, literature Ki, protein: trypsin beta
[2] = target: glutamate [nmda] receptor; settings: PDB protein-ligand complexes, literature Ki, protein: glutamate [nmda] receptor
[3] = target: N-terminal Human Maltase-Glucoamylase; settings: PDB protein-ligand complexes, literature Ki, protein: N-terminal Human Maltase-Glucoamylase
thymidylate synthase = settings: PDB protein-ligand complexes, literature Ki, protein: thymidylate synthase
[4] = target: purine nucleoside phosphorylase; settings: PDB protein-ligand complexes, literature Ki, protein: purine nucleoside phosphorylase
glycogen phosphorylase = settings: PDB protein-ligand complexes, literature Ki, protein: glycogen phosphorylase
[5] = target: Orotidine 5-phosphate decarboxylase; settings: PDB protein-ligand complexes, literature Ki; protein: Orotidine 5-phosphate decarboxylase; PDB entry 2ZZ1
[6] = target: orotidine 5'-monophosphate decarboxylase; settings: PDB protein-ligand complexes, literature Ki, protein: orotidine 5'-monophosphate decarboxylase
[7] = target: Ribulose bisphosphate carboxylase; settings: PDB protein-ligand complexes, literature Ki, protein: Ribulose bisphosphate carboxylase
arginase 1 = settings: PDB protein-ligand complexes, literature Ki, protein: arginase 1
HIV-1 protease = settings: PDB protein-ligand complexes, literature Ki, protein: HIV-1 protease
mta/sah nucleosidase = settings: PDB protein-ligand complexes, literature Ki, protein: mta/sah nucleosidase
[8] = target: Alpha-isopropylmalate synthase; settings: PDB protein-ligand complexes, literature Ki, protein: Alpha-isopropylmalate synthase
[9] = target: protocatechuate 3,4-dioxygenase; settings: PDB protein-ligand complexes, literature Ki; protein: protocatechuate 3,4-dioxygenase; PDB entry 3PCB

In the case of `CNC(=O)C(F)(F)[C@H](O)[C@H](CC(C)C)NC(=O)[C@@H](NC(=O)[C@@H](NC(=O)CC(C)C)C(C)C)C(C)C`, the Ki (penicillopepsin; PDB entry 1APW) is given as 0.01 µM.

For `CCC(CC)O[C@@H]1C=C(C(=O)O)C[C@H](N)[C@H]1NC(C)=O`, the Ki (NEURAMINIDASE A) is given as 1.77 µM.

In the case of `OC[C@H]1O[C@@H](O[C@H]2[C@H](O)[C@@H](O)[C@H](O[C@H]3[C@H](O)[C@@H](O)[C@H](O[C@H]4[C@H](O)[C@@H](O)[C@H](O)O[C@@H]4CO)O[C@@H]3CO)O[C@@H]2CO)[C@H](O)[C@@H](O)[C@@H]1O`, the Ki ([1]; PDB entry 3F5J) is listed as 52 µM.

In the case of `N=C(N)c1ccc([C@H]2[C@H]3C(=O)N(Cc4ccc(F)cc4)C(=O)[C@H]3[C@@H]3CCCN32)cc1`, the Ki (thrombin alpha; PDB entry 1OYT) is listed as 0.057 µM.

In the case of `CC(=O)N[C@H]([Al])Cc1cccc2ccccc12`, the Ki (chymotrypsin gamma; PDB entry 3VGC) is given as 3.11 µM.

In the case of `CNC(=O)C(F)(F)C(O)(O)[C@H](CC(C)C)NC(=O)[C@@H](NC(=O)[C@@H](NC(=O)CC(C)C)C(C)C)C(C)C`, the Ki (penicillopepsin; PDB entry 1APV) is listed as 0.001 µM.

For `N=C(N)c1ccc(/C=C2/CCCC/C(=C/c3ccc(C(=N)N)cc3)C2=O)cc1`, the Ki (trypsin beta; PDB entry 1V2N) is listed as 1.25 µM.

In the case of `NC1(C(=O)O)CC1`, the Ki ([2]; PDB entry 1Y20) is given as 4.8 µM.

For `OC[C@@H]1[C@@H](O)[C@H](O)[C@H]2[C@H](O)[C@@H](O)CN21`, the Ki ([3]; PDB entry 3CTT) is given as 0.45 µM.

For `O=C(O)c1cc(=O)c2c(Cl)cc(Cl)cc2[nH]1`, the Ki ([2]; PDB entry 1PBQ) is listed as 0.54 µM.

For `CC(=O)N[C@H]([Al])Cc1ccc(Cl)cc1`, the Ki (chymotrypsin gamma; PDB entry 1VGC) is given as 1.2 µM.

In the case of `CC(=O)N[C@@H]([Al])Cc1ccc(Cl)cc1`, the Ki (chymotrypsin gamma; PDB entry 2VGC) is given as 5.76 µM.

For `O=C(O)CCNC(=O)[C@H]1CCCN1S(=O)(=O)c1ccc(C(=O)N[C@@H](CCC(=O)O)C(=O)O)cc1`, the Ki (thymidylate synthase; PDB entry 1F4G) is listed as 0.33 µM.

In the case of `O=c1[nH]cnc2c([C@@H]3O[C@H](CO)[C@@H](O)[C@H]3O)[nH]nc12`, the Ki ([4]; PDB entry 1A69) is listed as 5 µM and the Ki ([4]; PDB entry 1PR1) is listed as 5 µM.

In the case of `Nc1nc2c(ncn2COCCO)c(=O)[nH]1`, the Ki ([4]; PDB entry 1PWY) is listed as 90 µM.

For `OC[C@H]1OC(O[C@@H]2[C@@H](O)[C@H](O)O[C@H](CO)[C@H]2O)[C@H](O)[C@@H](O)[C@@H]1O` (some centres not stated), the Ki ([1]; PDB entry 3F5L) is given as 191 µM.

For `CCOC(=O)CP(=O)(O)[C@H](CC(C)C)NC(=O)[C@@H](NC(=O)[C@@H](NC(=O)CC(C)C)C(C)C)C(C)C`, the Ki (penicillopepsin; PDB entry 1PPK) is listed as 0.022 µM.

For `O=C(NC(=O)c1ccccc1)N[C@@H]1O[C@H](CO)[C@@H](O)[C@H](O)[C@H]1O`, the Ki (glycogen phosphorylase; PDB entry 1K06) is listed as 4.6 µM and the Ki (glycogen phosphorylase; PDB entry 1K08) is listed as 4.6 µM.

In the case of `O=C1CC(=O)N([C@@H]2O[C@H](COP(=O)(O)O)[C@@H](O)[C@H]2O)C(=O)N1`, the Ki [5] is listed as 29 µM and the Ki ([6]; PDB entry 1X1Z) is listed as 0.0088 nM.

For `COC(=O)[C@H](Cc1ccccc1)OP(=O)(O)[C@H](CC(C)C)NC(=O)[C@@H](NC(=O)[C@@H](NC(=O)CC(C)C)C(C)C)C(C)C`, the Ki (penicillopepsin; PDB entry 1PPL) is listed as 0.0028 µM.

For `COC(=O)[C@H](Cc1ccccc1)OP(=O)(O)[C@H](CC(C)C)NC(=O)[C@H](CC(N)=O)NC(=O)[C@@H](NC(=O)CC(C)C)C(C)C`, the Ki (penicillopepsin; PDB entry 1BXQ) is listed as 0.042 µM.

For `NC1(C(=O)O)CCCC1`, the Ki ([2]; PDB entry 1Y1M) is listed as 15300 µM.

For `Cc1nc2ccc3ccc(CNc4ccc5c(c4)CN([C@@H](CCC(=O)O)C(=O)O)C5=O)cc3c2c(=O)[nH]1`, the Ki (thymidylate synthase; PDB entry 1F28) is listed as 0.016 µM.

For `Cc1cc(NS(=O)(=O)c2ccccc2)cc(OCCNc2ccncc2)c1`, the Ki (thrombin alpha; PDB entry 1UVT) is given as 0.023 µM.

For `OCCN1C[C@H](O)[C@@H](O)[C@H](O)[C@H]1CO`, the Ki ([3]; PDB entry 3L4W) is given as 1 µM.

For `NC(N)=NCCCC(=O)NC[C@@H]1CCCN1C(=O)[C@H](CO)NS(=O)(=O)c1ccc2ccccc2c1`, the Ki (thrombin alpha; PDB entry 1BMM) is given as 0.079 µM.

In the case of `CC(=O)N[C@@H]([Al])Cc1cccc2ccccc12`, the Ki (chymotrypsin gamma; PDB entry 4VGC) is given as 0.127 µM.

For `O=C(O)[C@H](O)[C@@H](O)[C@H](O)[C@H](O)COP(=O)(O)O`, the Ki ([7]; PDB entry 3AXM) is listed as 8.5 µM.

In the case of `FC(F)(CNc1nccc2oc(Cc3ccccc3-n3cncn3)nc12)[C@H]1CCCCN1`, the Ki (thrombin alpha; PDB entry 1ZGI) is given as 4.6 µM.

In the case of `CC(C)[C@H](N)C(=O)O`, the Ki (arginase 1; PDB entry 1T4S) is given as 3600 µM.

In the case of `NCc1ccccc1`, the Ki (trypsin beta; PDB entry 2BZA) is listed as 1580 µM.

For `O=c1cnn([C@@H]2O[C@H](COP(=O)(O)O)[C@@H](O)[C@H]2O)c(=O)[nH]1`, the Ki ([6]; PDB entry 1LOS) is given as 64 nM.

In the case of `N[C@@H]1CONC1=O`, the Ki ([2]; PDB entry 1PB9) is given as 241 µM.

For `NC1(C(=O)O)CCC1`, the Ki ([2]; PDB entry 1Y1Z) is listed as 831 µM.

For `CC(C)CN(C[C@@H](O)[C@H](Cc1ccccc1)NC(=O)[C@@H]1CN(c2cccc(C(F)(F)F)c2)C(=O)O1)S(=O)(=O)c1ccc2c(c1)OCO2`, the Ki (HIV-1 protease; PDB entry 3GI4) is given as 0.016 nM.

In the case of `O=C1COc2ccc(Cl)cc2CNC(=O)[C@@H]2CCCN2C(=O)[C@@H](C2CCCCC2)NC(=O)CCN1`, the Ki (thrombin alpha; PDB entry 1NT1) is given as 0.0013 µM.

In the case of `COC(=O)[C@@H]1Cc2cccc(c2)CNC(=O)C[C@H](NC(=O)[C@@H](NC(=O)CC(C)C)C(C)C)C(=O)N[C@@H](CC(C)C)P(=O)(O)O1`, the Ki (penicillopepsin; PDB entry 1BXO) is given as 0.0001 µM.

For `NC(=O)C1=CN([C@@H]2O[C@H](COP(=O)(O)OP(=O)(O)OC[C@H]3O[C@@H](n4cnc5c(N)ncnc54)[C@H](OP(=O)(O)O)[C@@H]3O)[C@@H](O)[C@H]2O)C=CC1`, the Ki ([7]; PDB entry 3AXK) is given as 70 µM.

In the case of `CC(=O)N[C@@H]1O[C@H](CO)[C@@H](O)[C@H](O)[C@H]1O`, the Ki (glycogen phosphorylase; PDB entry 2PRJ) is listed as 32 µM.

For `NC(=NCCC[C@H](N)C(=O)O)NO`, the Ki (arginase 1; PDB entry 1HQF) is listed as 10 µM.

In the case of `COC(=O)[C@H](Cc1ccccc1)OP(=O)(O)[C@H](CC(C)C)NC(=O)[C@H](C)NC(=O)[C@H](C)NC(=O)OCc1ccccc1`, the Ki (penicillopepsin; PDB entry 1PPM) is given as 1.6 µM.

For `Nc1ncnc2nc[nH]c12`, the Ki (mta/sah nucleosidase; PDB entry 1JYS) is listed as 300 µM.

For `CC[C@H](C)[C@H](N)C(=O)O`, the Ki ([8]; PDB entry 3F6G) is listed as 19 µM and the Ki ([8]; PDB entry 3F6H) is listed as 19 µM.

In the case of `N#Cc1ccc(S(=O)(=O)Nc2cccc([C@@H](c3c(O)c4c(oc3=O)CCCCCC4)C3CC3)c2)cc1`, the Ki (HIV-1 protease; PDB entry 1HPO) is listed as 0.6 nM.

For `OC[C@H]1O[C@@H]2O[C@H]3[C@H](O)[C@@H](O)[C@@H](O[C@H]4[C@H](O)[C@@H](O)[C@@H](O[C@H]5[C@H](O)[C@@H](O)[C@@H](O[C@H]6[C@H](O)[C@@H](O)[C@@H](O[C@H]7[C@H](O)[C@@H](O)[C@@H](O[C@H]8[C@H](O)[C@@H](O)[C@@H](O[C@H]9[C@H](O)[C@@H](O)[C@@H](O[C@H]1[C@H](O)[C@H]2O)O[C@@H]9CO)O[C@@H]8CO)O[C@@H]7CO)O[C@@H]6CO)O[C@@H]5CO)O[C@@H]4CO)O[C@@H]3CO`, the Ki (glycogen phosphorylase; PDB entry 1P2G) is listed as 7400 µM.

For `Nc1ncnc2c1ccn2[C@@H]1O[C@H](CO)[C@@H](O)[C@H]1O`, the Ki ([4]; PDB entry 1PR5) is given as 120 µM.

For `CSC[C@H]1CN(Cc2c[nH]c3c(N)ncnc23)C[C@@H]1O`, the Ki (mta/sah nucleosidase; PDB entry 1Y6Q) is given as 2e-06 µM.

In the case of `Cc1ccc(S(=O)(=O)N[C@@H](Cc2cccc(C(=N)N)c2)C(=O)N2CCCCC2)cc1`, the Ki (trypsin beta; PDB entry 1PPH) is given as 1.2 µM.

In the case of `Cc1ccc(S(=O)(=O)N[C@@H](Cc2ccc(C(=N)N)cc2)C(=O)N2CCCCC2)cc1`, the Ki (thrombin alpha; PDB entry 1ETT) is given as 1.3 µM.

For `O=C(O)c1cccc(O)c1`, the Ki [9] is listed as 4000 µM.

In the case of `CC(=O)NC(=O)N[C@@H]1O[C@H](CO)[C@@H](O)[C@H](O)[C@H]1O`, the Ki (glycogen phosphorylase; PDB entry 1KTI) is given as 370 µM.

In the case of `N=C(N)N1CCC[C@H](C(=O)NC[C@@H]2CCCN2C(=O)[C@H](CO)NS(=O)(=O)c2ccc3ccccc3c2)C1`, the Ki (thrombin alpha; PDB entry 1BMN) is given as 0.0036 µM.

For `Nc1nc2[nH]cc(CCc3ccc(C(=O)N[C@@H](CCC(=O)O)C(=O)O)cc3)c2c(=O)[nH]1`, the Ki (thymidylate synthase; PDB entry 1JUJ) is given as 0.109 µM.
